# From PubChem BioAssay AID1259310 (The Scripps Research Institute Molecular Screening Center, 2017)
# Protein sequences, listed by entry. Tags and fused reporters are not part of them. Lines headed by an entry give the natural chain unless they say otherwise; changes in a name come on top.
# UniProt Q969H0, whole entry, stated change not applied: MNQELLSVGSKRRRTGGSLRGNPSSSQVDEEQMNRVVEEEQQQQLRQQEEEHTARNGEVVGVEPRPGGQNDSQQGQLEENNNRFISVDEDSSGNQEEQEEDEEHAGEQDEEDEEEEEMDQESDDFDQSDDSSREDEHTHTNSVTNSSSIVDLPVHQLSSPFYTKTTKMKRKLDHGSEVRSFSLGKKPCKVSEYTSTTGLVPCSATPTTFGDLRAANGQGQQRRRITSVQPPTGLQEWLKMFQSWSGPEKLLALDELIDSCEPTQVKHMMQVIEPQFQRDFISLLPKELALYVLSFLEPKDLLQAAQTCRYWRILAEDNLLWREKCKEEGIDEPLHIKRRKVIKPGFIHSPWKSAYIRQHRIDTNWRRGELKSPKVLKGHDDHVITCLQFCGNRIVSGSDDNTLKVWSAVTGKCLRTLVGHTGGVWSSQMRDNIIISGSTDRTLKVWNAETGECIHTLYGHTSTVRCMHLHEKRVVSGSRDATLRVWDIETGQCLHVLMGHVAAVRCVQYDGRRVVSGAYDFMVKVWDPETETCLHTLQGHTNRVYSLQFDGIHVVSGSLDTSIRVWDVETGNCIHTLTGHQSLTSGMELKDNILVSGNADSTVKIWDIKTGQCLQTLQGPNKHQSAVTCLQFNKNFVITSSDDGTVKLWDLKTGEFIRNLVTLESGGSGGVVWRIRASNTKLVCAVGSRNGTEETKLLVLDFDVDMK
# The list shows a part of the results, in another mix than the full data. Some salts or complexes appear as unconnected parts, following the source record. Active and inactive are the calls of the source. Cut-off read from the data, not from the text of the source: active = normalized activity above about 1.9%; inactive = the rest.
# Molecular target: F-box/WD repeat-containing protein 7 (Homo sapiens) (UniProt Q969H0)
# Assay: FBW7 E3 ligase activators, primary screen, biochemical, AlphaScreen, human (AID 1259310);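 note: purified mutant Fbw7 with reduced substrate affinity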
# Conditions: AlphaScreen FBW7–phospho-cyclin E peptide binding, activator screen; at 26.1 µM; stronger effect = higher value
row,SMILES,normalized activity (activation)
1,CCOP(C)(=S)SCN(CC(=O)O)C(=O)OC (stereo unspecified),inactive: 0.16%
2,CC(C)Oc1ccc(NP(C)(=O)Oc2ccc(Cl)cc2)cc1 (stereo unspecified),inactive: -0.1%
3,CCCCOC(=O)Nc1c([N+](=O)[O-])cc([N+](=O)[O-])cc1[N+](=O)[O-],inactive: -0.02%
4,COc1ccccc1OP(C)(=O)Nc1ccc(Cl)cc1Cl (stereo unspecified),inactive: -0.25%
5,Cc1cc(C)cc(OP(C)(=O)Nc2ccc(F)cc2)c1 (stereo unspecified),inactive: -0.11%
6,CCN(CC)c1nc(C)cc(C)n1.O=[N+]([O-])c1cc([N+](=O)[O-])c(O)c([N+](=O)[O-])c1,inactive: 0%
7,Cc1ccc(NP(C)(=O)Oc2ccccc2)cc1 (stereo unspecified),inactive: 0.13%
8,CCN(CC)CCCOC(=O)C(O)(c1ccccc1)c1ccccc1,inactive: -0.05%
9,Cc1ccc2c(c1)c1nc(C)sc1n2C.O=[N+]([O-])c1cc([N+](=O)[O-])c(O)c([N+](=O)[O-])c1,inactive: -0.79%
10,COc1ccccc1OP(C)(=O)Nc1cc(Cl)ccc1C (stereo unspecified),inactive: 0.23%
11,COc1ccccc1OP(C)(=O)Nc1ccc(C)cc1 (stereo unspecified),inactive: -0.11%
12,Cc1ccc(NP(C)(=O)Oc2ccccc2)c(C)c1 (stereo unspecified),inactive: -0.22%
13,CCOC(=O)c1ccc(NP(C)(=O)Oc2ccccc2)cc1 (stereo unspecified),inactive: 0.4%
14,Cc1cc(C)cc(OP(C)(=O)NCc2ccccc2)c1 (stereo unspecified),inactive: 0.25%
15,CP(=O)(O)OC(c1cccc(C(F)(F)F)c1)C(F)(F)F (stereo unspecified),inactive: 0.12%
16,O=C(O)C(O)(c1ccccc1)c1ccccc1,inactive: -0.05%
17,O=C(O)C1(O)c2ccccc2-c2ccccc21,inactive: -0.04%
18,CC(C)(C)c1ccc(OP(C)(N)=O)cc1 (stereo unspecified),inactive: 0.83%
19,CC(CCN([N+](=O)[O-])S(=O)(=O)c1ccc([N+](=O)[O-])cc1)([N+](=O)[O-])[N+](=O)[O-],inactive: 0.1%
20,CCc1ccc(OP(C)(=O)Nc2ccccc2I)cc1 (stereo unspecified),inactive: 0.13%
21,CP1(=O)Oc2ccccc2Cc2ccccc2O1,inactive: 0.2%
22,O=C(O)Cc1c([N+](=O)[O-])cc([N+](=O)[O-])cc1[N+](=O)[O-],inactive: 0.18%
23,O=[N+]([O-])C12CC3(O)CC([N+](=O)[O-])(C1)CC([N+](=O)[O-])(C3)C2,inactive: -0.05%
24,O=[N+]([O-])Nc1nc(CCc2n[nH]c(N[N+](=O)[O-])n2)n[nH]1,inactive: 0.09%
25,Cc1ccc(Cl)c(OP(C)(=O)Nc2ccccn2)c1 (stereo unspecified),inactive: -0.17%
26,Nc1c([N+](=O)[O-])cc([N+](=O)[O-])c(Nc2ccc(C(=O)O)cc2)c1[N+](=O)[O-],inactive: 0.53%

row,SMILES,normalized activity (activation)
1,O=[N+]([O-])c1cnc(Nc2c([N+](=O)[O-])cc([N+](=O)[O-])cc2[N+](=O)[O-])c([N+](=O)[O-])c1,inactive: -0.55%
2,CC(=O)NC1(NC(C)=O)CC(C)N(C)CC1C.O=[N+]([O-])c1cc([N+](=O)[O-])c(O)c([N+](=O)[O-])c1 (stereo unspecified),inactive: -0.06%
3,Cc1ccc(C)c(NP(C)(=O)Oc2ccccc2)c1 (stereo unspecified),inactive: -0.42%
4,O=[N+]([O-])c1cc2[nH]c3cc([N+](=O)[O-])c([N+](=O)[O-])cc3c2cc1[N+](=O)[O-],inactive: -0.32%
5,C=CCC1(CC=C)CCCCCCCCCCCN1.O=[N+]([O-])c1cc([N+](=O)[O-])c(O)c([N+](=O)[O-])c1,inactive: 0.58%
6,CP(=O)(Nc1cccc(Br)c1)Oc1ccccc1 (stereo unspecified),inactive: 0.09%
7,CCOC(=O)c1ccc(NP(C)(=O)Oc2cc(C)cc(C)c2)cc1 (stereo unspecified),inactive: 0.09%
8,O=c1[nH]c2cc([N+](=O)[O-])c([N+](=O)[O-])c([N+](=O)[O-])c2[nH]1,inactive: 1.79%
9,COc1ccc(OP(C)(=O)Nc2cccc(Cl)c2C)cc1 (stereo unspecified),inactive: 0.16%
10,COc1ccccc1OP(C)(=O)Nc1ccc(Cl)cc1 (stereo unspecified),inactive: 0.88%
11,COc1ccccc1OP(C)(=O)Nc1cccc(Br)c1 (stereo unspecified),inactive: 0.08%
12,CC1=[N+](C)C(C)(C)Cc2ccccc21.O=[N+]([O-])c1cc([N+](=O)[O-])c(O)c([N+](=O)[O-])c1,inactive: -0.08%
13,CN(C)/N=C/c1ccc(-c2c([N+](=O)[O-])cc([N+](=O)[O-])cc2[N+](=O)[O-])o1,inactive: -0.52%
14,Cc1cc(-c2nc3ccccc3[nH]2)c2ccccc2n1.O=[N+]([O-])c1cc([N+](=O)[O-])c(O)c([N+](=O)[O-])c1,inactive: 0%
15,COc1ccc(NP(C)(=O)Oc2ccc(Cl)cc2)cc1 (stereo unspecified),inactive: 0.01%
16,CP(=O)(O)OC(c1ccccc1)C(Cl)(Cl)C(F)(F)F (stereo unspecified),inactive: -0.2%
17,CCN(CC)C(=O)c1c([N+](=O)[O-])cc([N+](=O)[O-])cc1[N+](=O)[O-],inactive: 0.03%
18,Nc1nonc1-c1no[n+]([O-])c1-c1nonc1N,inactive: -0.03%
19,CP(=O)(Nc1cccc(Br)c1)Oc1ccc(Cl)cc1 (stereo unspecified),inactive: 0.94%
20,CCCOc1ccc(NP(C)(=O)Oc2ccccc2OC)cc1 (stereo unspecified),inactive: -0.14%
21,COc1ccccc1OP(C)(=O)Nc1c(C)cccc1C (stereo unspecified),inactive: 0.19%
22,Cc1cc(N(C)C)cc[n+]1C(=O)N(C)C.c1ccc([B-](c2ccccc2)(c2ccccc2)c2ccccc2)cc1,inactive: 0.19%
23,CCN(CC)C(C)COC(=O)C(O)(c1ccccc1)c1ccccc1 (stereo unspecified),inactive: -0.01%
24,CCOC(=O)C(CC)C1=NC(C)(C)Cc2ccccc21.O=[N+]([O-])c1cc([N+](=O)[O-])c(O)c([N+](=O)[O-])c1 (stereo unspecified),inactive: -0.13%
25,CP(=O)(Nc1ccc(Br)cc1)Oc1ccc(Cl)cc1 (stereo unspecified),inactive: 0.27%
